Membrane permeability of cyclic peptides

PAMPA is the parallel artificial membrane permeability assay, which has no cells and reads passive diffusion.
Permeability is in 10^-6 cm/s, converted from the database's log10 values; higher is more permeable.

SMILES | PAMPA (10^-6 cm/s)
CC(=O)N1CCC[C@H]1C(=O)N(C)[C@@H](CC(C)C)C(=O)N[C@@H]1C(=O)N(C)[C@H](CC(C)C)C(=O)N[C@H](CC(C)C)C(=O)N(C)[C@@H](CC(C)C)C(=O)N(C)[C@@H](C)C(=O)N[C@@H](CC(C)C)C(=O)N2CCC[C@H]2C(=O)O[C@@H]1C | 4.9
CC(=O)N1CCC[C@@H]1C(=O)N(C)[C@@H](CC(C)C)C(=O)N[C@@H]1C(=O)N[C@H](CC(C)C)C(=O)N[C@H](CC(C)C)C(=O)N(C)[C@H](CC(C)C)C(=O)N[C@H](C)C(=O)N[C@@H](CC(C)C)C(=O)N2CCC[C@@H]2C(=O)O[C@@H]1C | 3.3
CC(=O)N1CCC[C@H]1C(=O)N(C)[C@@H](CC(C)C)C(=O)N[C@@H]1C(=O)N[C@H](CC(C)C)C(=O)N[C@H](CC(C)C)C(=O)N[C@H](CC(C)C)C(=O)N[C@H](C)C(=O)N[C@H](CC(C)C)C(=O)N2CCC[C@@H]2C(=O)O[C@@H]1C | 0.001
CC(=O)N1CCC[C@@H]1C(=O)N(C)[C@H](CC(C)C)C(=O)N[C@@H]1C(=O)N[C@H](CC(C)C)C(=O)N(C)[C@H](CC(C)C)C(=O)N[C@H](CC(C)C)C(=O)N(C)[C@@H](C)C(=O)N[C@H](CC(C)C)C(=O)N2CCC[C@H]2C(=O)O[C@@H]1C | 8.7
CC(=O)N1CCC[C@@H]1C(=O)N(C)[C@@H](CC(C)C)C(=O)N[C@@H]1C(=O)N(C)[C@H](CC(C)C)C(=O)N(C)[C@H](CC(C)C)C(=O)N[C@@H](CC(C)C)C(=O)N(C)[C@H](C)C(=O)N[C@@H](CC(C)C)C(=O)N2CCC[C@@H]2C(=O)O[C@@H]1C | 3
CC(=O)N1CCC[C@H]1C(=O)N(C)[C@H](CC(C)C)C(=O)N[C@@H]1C(=O)N(C)[C@@H](CC(C)C)C(=O)N[C@@H](CC(C)C)C(=O)N(C)[C@@H](CC(C)C)C(=O)N(C)[C@H](C)C(=O)N[C@H](CC(C)C)C(=O)N2CCC[C@@H]2C(=O)O[C@@H]1C | 4.2
CC(=O)N1CCC[C@H]1C(=O)N(C)[C@H](CC(C)C)C(=O)N[C@@H]1C(=O)N[C@@H](CC(C)C)C(=O)N[C@@H](CC(C)C)C(=O)N(C)[C@H](CC(C)C)C(=O)N[C@@H](C)C(=O)N[C@@H](CC(C)C)C(=O)N2CCC[C@@H]2C(=O)O[C@@H]1C | 0.01
CC(=O)N1CCC[C@@H]1C(=O)N(C)[C@@H](CC(C)C)C(=O)N[C@@H]1C(=O)N(C)[C@@H](CC(C)C)C(=O)N[C@H](CC(C)C)C(=O)N[C@H](CC(C)C)C(=O)N(C)[C@H](C)C(=O)N[C@H](CC(C)C)C(=O)N2CCC[C@@H]2C(=O)O[C@@H]1C | 0.65
CC(=O)N1CCC[C@@H]1C(=O)N(C)[C@H](CC(C)C)C(=O)N[C@@H]1C(=O)N[C@H](CC(C)C)C(=O)N[C@H](CC(C)C)C(=O)N[C@H](CC(C)C)C(=O)N(C)[C@H](C)C(=O)N[C@H](CC(C)C)C(=O)N2CCC[C@H]2C(=O)O[C@@H]1C | 0.41
CC(=O)N1CCC[C@@H]1C(=O)N(C)[C@H](CC(C)C)C(=O)N[C@@H]1C(=O)N(C)[C@@H](CC(C)C)C(=O)N(C)[C@@H](CC(C)C)C(=O)N[C@H](CC(C)C)C(=O)N[C@H](C)C(=O)N[C@H](CC(C)C)C(=O)N2CCC[C@@H]2C(=O)O[C@@H]1C | 1.5
CC(=O)N1CCC[C@@H]1C(=O)N(C)[C@@H](CC(C)C)C(=O)N[C@@H]1C(=O)N(C)[C@H](CC(C)C)C(=O)N(C)[C@H](CC(C)C)C(=O)N(C)[C@@H](CC(C)C)C(=O)N(C)[C@@H](C)C(=O)N[C@H](CC(C)C)C(=O)N2CCC[C@H]2C(=O)O[C@@H]1C | 5.9
CC(=O)N1CCC[C@@H]1C(=O)N(C)[C@H](CC(C)C)C(=O)N[C@@H]1C(=O)N[C@H](CC(C)C)C(=O)N[C@@H](CC(C)C)C(=O)N[C@H](CC(C)C)C(=O)N[C@H](C)C(=O)N[C@H](CC(C)C)C(=O)N2CCC[C@H]2C(=O)O[C@@H]1C | 0.11
CC(=O)N1CCC[C@@H]1C(=O)N(C)[C@@H](CC(C)C)C(=O)N[C@@H]1C(=O)N(C)[C@@H](CC(C)C)C(=O)N(C)[C@H](CC(C)C)C(=O)N[C@H](CC(C)C)C(=O)N(C)[C@@H](C)C(=O)N[C@@H](CC(C)C)C(=O)N2CCC[C@H]2C(=O)O[C@@H]1C | 1.5
CC(=O)N1CCC[C@@H]1C(=O)N(C)[C@@H](CC(C)C)C(=O)N[C@@H]1C(=O)N[C@@H](CC(C)C)C(=O)N[C@H](CC(C)C)C(=O)N(C)[C@@H](CC(C)C)C(=O)N(C)[C@@H](C)C(=O)N[C@H](CC(C)C)C(=O)N2CCC[C@@H]2C(=O)O[C@@H]1C | 1.1
CC(=O)N1CCC[C@H]1C(=O)N(C)[C@@H](CC(C)C)C(=O)N[C@@H]1C(=O)N[C@H](CC(C)C)C(=O)N[C@H](CC(C)C)C(=O)N[C@H](CC(C)C)C(=O)N(C)[C@H](C)C(=O)N[C@H](CC(C)C)C(=O)N2CCC[C@@H]2C(=O)O[C@@H]1C | 0.13
CC(=O)N[C@@H]1C(=O)N2CCC[C@H]2C(=O)N(C)[C@H](CC(C)C)C(=O)N[C@H](CC(C)C)C(=O)N[C@@H](CC(C)C)C(=O)N(C)[C@@H](CC(C)C)C(=O)N(C)[C@H](C)C(=O)N[C@@H](CC(C)C)C(=O)N2CCC[C@@H]2C(=O)O[C@@H]1C | 1.5

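Conditions beyond the assay type are not listed; see the original paper. The list need not hold all peptides of the study. Peptides that the database sets to -10, its floor, are left out.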

Source: CycPeptMPDB (Li et al. 2023), which took these values from Kelly et al. 2021, doi:10.1021/jacs.0c06115.